The text below walks through data of US11673889B2, “Substituted imidazo[4,5-c][1,8]naphthyridines as phosphodiesterase inhibitors” (Nanjing Zhengxiang Pharmaceuticals Co., Ltd., priority 2019, dated 2023).

The assay deals with T1, ENPP-1, MDA-MB-231 cells (Homo sapiens, UniProt P22413).
T1 sequence (P22413 1-925): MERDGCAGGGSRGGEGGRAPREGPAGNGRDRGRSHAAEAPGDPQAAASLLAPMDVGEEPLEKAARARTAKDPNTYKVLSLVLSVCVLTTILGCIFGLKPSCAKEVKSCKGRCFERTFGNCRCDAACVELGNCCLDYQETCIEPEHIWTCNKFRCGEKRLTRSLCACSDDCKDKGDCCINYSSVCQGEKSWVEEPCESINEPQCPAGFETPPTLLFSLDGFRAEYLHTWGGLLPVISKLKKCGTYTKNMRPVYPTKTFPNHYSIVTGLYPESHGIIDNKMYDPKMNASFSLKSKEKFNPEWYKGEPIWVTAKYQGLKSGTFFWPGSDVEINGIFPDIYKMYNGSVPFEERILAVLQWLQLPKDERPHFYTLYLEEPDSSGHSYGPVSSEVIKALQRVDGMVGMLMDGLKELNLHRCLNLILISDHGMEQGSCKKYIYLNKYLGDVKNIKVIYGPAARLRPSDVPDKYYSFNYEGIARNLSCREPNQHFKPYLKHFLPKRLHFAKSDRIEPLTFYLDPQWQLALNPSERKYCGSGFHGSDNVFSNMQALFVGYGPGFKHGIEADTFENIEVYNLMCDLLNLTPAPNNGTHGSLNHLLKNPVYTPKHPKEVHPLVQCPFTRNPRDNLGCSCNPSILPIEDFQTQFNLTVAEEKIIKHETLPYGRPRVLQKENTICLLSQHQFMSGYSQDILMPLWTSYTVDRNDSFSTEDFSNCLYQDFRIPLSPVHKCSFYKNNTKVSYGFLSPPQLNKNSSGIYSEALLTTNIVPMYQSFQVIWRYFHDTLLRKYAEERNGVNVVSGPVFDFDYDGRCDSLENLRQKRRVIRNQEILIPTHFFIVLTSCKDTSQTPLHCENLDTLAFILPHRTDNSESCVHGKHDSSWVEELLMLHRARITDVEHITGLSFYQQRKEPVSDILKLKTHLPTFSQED
Put plainly: cell-based. The method, then: ENPP-1 were mainly expressed on the surface of cell membrane where it hydrolytes 2′3′-cGAMP to generate 5′-GMP and 5′-AMP. ENPP-1 also has the ability to hydrolyzes artificial phosphoric acid ester TMP-pNP to nucleotide-5′-monophosphate and p-nitrophcnol there, which is a chromogenic product.
8 point of different concentrations of each inhibitor were prepared with the final assay concentrations starting at 20 μM. 3× series dilution by DMEM medium without FBS was applied. Prior to adding inhibitors, 75000 cells per well were incubated at 37° C., 5% CO2 in DMEM for 24 hours. After removing the supernatant medium, 50 μL inhibitor solution was added into each well with cultured cells and incubate at 37° C., 5% CO2 for 60 minutes.
The IC50 values for percent inhibition versus compound concentration are determined by fitting the inhibition curves using a four-parameter variable slope model in GraphPad Prism® 8.

One may read the IC50 as the concentration that gives 50% inhibition. Low values mean inhibition by little substance, high ones a need for much substance. Broadly, the inhibition is the share of the control response that was lost under treatment. Consider `COc1ccc2c(ncc3[nH]c(=O)n(Cc4ccc(P(=O)(O)OC)c(F)c4)c32)n1` [Compound 127, methyl hydrogen (2-fluoro-4-((7-methoxy-2-oxo-2,3-dihydro-1H-imidazo[4,5-c][1,8]naphthyridin-1-yl)methyl)phenyl)phosphonate], for which the 50% inhibitory concentration (IC50) stood at 81 nM. Also, under “MDA-MB-231, read-out: % Inhibition (at 20 μM)”, the inhibition at 20 µM worked out at 78%.
